The source of these data is patent US10058534B2, “Benzothiophene derivatives and compositions thereof as selective estrogen receptor degraders” (NOVARTIS AG, priority 2013, dated 2018).

Sequences of proteins named here, by UniProt entry; tags and fusion partners are left off.
UniProt P03372, whole entry: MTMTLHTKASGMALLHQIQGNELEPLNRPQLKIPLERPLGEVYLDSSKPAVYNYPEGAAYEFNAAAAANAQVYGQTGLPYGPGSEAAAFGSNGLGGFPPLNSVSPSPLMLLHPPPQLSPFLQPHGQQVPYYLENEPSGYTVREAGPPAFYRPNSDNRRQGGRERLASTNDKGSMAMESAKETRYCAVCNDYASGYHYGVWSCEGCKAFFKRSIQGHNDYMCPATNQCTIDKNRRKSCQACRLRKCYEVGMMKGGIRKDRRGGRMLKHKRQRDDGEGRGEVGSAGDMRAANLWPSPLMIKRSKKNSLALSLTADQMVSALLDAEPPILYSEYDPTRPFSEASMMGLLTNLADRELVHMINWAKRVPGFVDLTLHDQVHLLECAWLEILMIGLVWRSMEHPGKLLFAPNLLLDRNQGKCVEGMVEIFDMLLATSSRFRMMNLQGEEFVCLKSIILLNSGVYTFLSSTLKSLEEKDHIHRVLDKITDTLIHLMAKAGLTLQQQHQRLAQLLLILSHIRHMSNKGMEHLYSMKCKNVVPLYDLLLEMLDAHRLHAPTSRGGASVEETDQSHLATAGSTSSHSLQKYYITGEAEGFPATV

The target in one assay is ERα (Homo sapiens (Human), UniProt P03372). As to the kind of experiment: ERα degradation (MCF7 cells), in-cell Western. Type of assay: cell-based. Particulars: remaining ERα protein at 10 μM ligand, relative to DMSO control.
Assay [1] deals with ER (endogenous, MCF7 cells) (Homo sapiens (Human), UniProt P03372). As to the kind of experiment: ER transcription assay (MCF7 cells), ERE-luciferase reporter. Type of assay: cell-based. To be noted: inflection point of the inhibition of transcription in MCF7 cells; 0.1 nM estradiol, 24 hours. On the technique in general: Reporter assays use an easily measured gene product as a stand-in for the process of interest.

For `Cc1cc(Oc2c(-c3ccc(O)cc3)sc3cc(O)ccc23)ccc1/C=C/C(=O)O` [Example 56, (E)-3-(4-((6-hydroxy-2-(4-hydroxyphenyl)-benzo[b]thiophen-3-yl)oxy)-2-methylphenyl)acrylic acid], the “% ERα remaining” value at ERα was 27%.

What is called IC50 is the midpoint of a concentration-inhibition curve. Low readings indicate higher potency, high ones lower potency. For `Cc1nnc(/C=C/c2ccc(Oc3c(-c4ccccc4C(C)C)sc4cc(O)ccc34)cc2)o1` [Example 102, (E)-2-(2-isopropylphenyl)-3-(4-(2-(5-methyl-1,3,4-oxadiazol-2-yl)vinyl)phenoxy)benzo [b]thiophen-6-ol], the “% ERα remaining” value on ERα is 25%. This compound also returned an IC50 in assay [1] of 1.2 nM.

Compound `Cc1cc(F)ccc1-c1sc2cc(O)ccc2c1Oc1ccc(/C=C/c2nnc(C)n2C)cc1` [Example 106, (E)-3-(4-(2-(4,5-dimethyl-4H-1,2,4-triazol-3-yl)vinyl)phenoxy)-2-(4-fluoro-2-methylphenyl)benzo[b] thiophen-6-ol] came in with an IC50 in assay [1] of 38 nM.

Compound `CCc1cccc(CC)c1-c1sc2cc(O)ccc2c1Oc1ccc(/C=C/C(=O)O)cc1` [Example 130, (E)-3-(4-((2-(2,6-diethylphenyl)-6-hydroxybenzo[b]thiophen-3-yl)oxy)phenyl)acrylic acid] had an IC50 in assay [1] of 488 nM.
